# What was measured:
# Gibco hiPSCs = test: LPM differentiation assay (FOXF1 high content imaging), Gibco hiPSCs; settings: thalidomide at 20 µM, atRA at 3 µM, during LPM differentiation
# XCL-1 hiPSC CRBN KO/KI = test: LPM differentiation assay (FOXF1 high content imaging), XCL-1 CRBN KO/KI clone; assay type: cell-based, human; settings: both engineered clones (CRBN KO/KI and SALL4^G416A) versus mock
structure (smiles),measurement,setting,value
"CC1=C(/C=C/C(C)=C/C=C/C(C)=C/C(=O)O)C(C)(C)CCC1 [atRA, all-trans retinoic acid]",reduction of %FOXF1+ cells via high content imaging,Gibco hiPSCs,90%
same,right-shift in potency in engineered clones,XCL-1 hiPSC CRBN KO/KI,~ 3 fold

# Source: publication PMC7046148 (Scientific Reports, 2020)
